One compound from ChEMBL document CHEMBL1152646, “Synthesis, molecular docking and biological evaluation of metronidazole derivatives as potent Helicobacter pylori urease inhibitors” (Bioorg Med Chem, 2009) can be followed below.

Chains of the proteins cited; added tags and fusions are not shown. Lines headed by an entry give the natural chain unless they say otherwise; changes in a name come on top.
UniProt P69996: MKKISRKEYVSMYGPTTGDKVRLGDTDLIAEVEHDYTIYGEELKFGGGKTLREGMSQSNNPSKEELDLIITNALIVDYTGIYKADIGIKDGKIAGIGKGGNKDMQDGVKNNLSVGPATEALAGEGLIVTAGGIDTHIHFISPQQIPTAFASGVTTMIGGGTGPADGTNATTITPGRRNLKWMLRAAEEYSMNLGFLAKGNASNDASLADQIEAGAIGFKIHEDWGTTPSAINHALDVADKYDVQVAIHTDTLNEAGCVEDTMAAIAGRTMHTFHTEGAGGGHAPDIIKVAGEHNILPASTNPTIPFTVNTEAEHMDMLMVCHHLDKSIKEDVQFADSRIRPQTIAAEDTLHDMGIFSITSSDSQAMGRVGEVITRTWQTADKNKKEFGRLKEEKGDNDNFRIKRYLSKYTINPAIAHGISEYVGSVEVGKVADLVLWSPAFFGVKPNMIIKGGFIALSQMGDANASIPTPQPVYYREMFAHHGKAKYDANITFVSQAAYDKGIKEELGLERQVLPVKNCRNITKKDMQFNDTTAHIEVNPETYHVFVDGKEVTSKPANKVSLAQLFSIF
UniProt P14916: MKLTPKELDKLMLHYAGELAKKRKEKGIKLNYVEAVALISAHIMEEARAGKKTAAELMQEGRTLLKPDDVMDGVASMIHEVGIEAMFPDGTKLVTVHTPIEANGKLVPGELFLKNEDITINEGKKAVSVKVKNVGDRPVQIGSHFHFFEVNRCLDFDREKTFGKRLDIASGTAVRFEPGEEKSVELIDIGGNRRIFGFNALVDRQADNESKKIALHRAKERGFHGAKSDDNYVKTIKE

Structures are written as SMILES.

The target in this test is Urease subunit alpha/Urease subunit beta (Helicobacter pylori (strain ATCC 700392 / 26695) (Campylobacterpylori)) (UniProt P69996+P14916). As to the kind of experiment: Inhibition of Helicobacter pylori ATCC 43504 urease assessed as ammonia production at 1 mM after 3 hrs by indophenol method. The gist of the method: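 Crude urease from H. pylori ATCC 43504 grown 24 h at 37 °C microaerobically in brucella broth with 10% heat-inactivated horse serum; cells PBS-washed, stored at -80 °C, sonicated 60 s in water with protease inhibitors, extract mixed 1:1 with glycerol. Enzyme (4 U) preincubated 3 h at room temperature with compound; ammonia measured by indophenol method; percent inhibition.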

Turning to `CC(=O)NO`, the inhibition is 91.2%.
